ALDH1A1 inh: inhibitors of human aldehyde dehydrogenase 1A1. P00352. Purified ALDH1A1, NADH fluorescence, propionaldehyde substrate. Potency, µM (titrated, usually from 75.3 µM), inactives show at the top dose activity, negative = inhibition, actives largely listed as inhibitors. actives 7.3% (n = 220,000). AID 1030; active = well fitted inhibition curve with a large enough effect, not every such curve was filed as active; inconclusive = small, poorly fitted or top-dose-only effect, or another doubt; inactive = no such curve, though single readings can be large or run the other way;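 note: potency is the fitted concentration of half-maximal effect; plate controls were no enzyme wells and a reference inhibitor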
KDM4E inh: inhibitors of human JMJD2E histone demethylase; JMJD2E catalytic domain, FDH-coupled NADH fluorescence (FDH is formaldehyde dehydrogenase); Potency, µM (titrated, usually from 57.1 µM), for inactives: at the highest dose activity change, negative = inhibition, usual class: inhibitors; actives 1.6% (n = 230,000); B2RXH2; active = well fitted inhibition curve with a large enough effect, not every such curve was filed as active; inconclusive = small, poorly fitted or top-dose-only effect, or another doubt; inactive = no such curve, though single readings can be large or run the other way;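 note: potency is the fitted concentration of half-maximal effect; 0% = wells with enzyme and -100% = buffer wells without enzyme; nearly all actives have a fitted effect of over 50% in size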
miR-21 reporter: miR-21 reporter, rising signal. 340,000 tested, under 10 active. Potency, µM (highest dose often 38.3 µM), for the others: at the highest dose reporter change, positive = more light. HeLa miR-21 FLuc reporter, luciferase, 48 h. AID 2288; active = well fitted rising curve with a large enough effect; inconclusive = small, poorly fitted or top-dose-only effect; inactive = no such curve, though single readings can be large or run the other way;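 further: % of control where 0% means no effect; miR-21 action dims this reporter so a rising signal means less miR-21 action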
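Using DMEM plus 10% FBS, HeLa miR-21-FLuc cells are incubated with test compounds (final up to about 40uM) for 48 hours; firefly luciferase signal is then imaged following reagent-mediated lysis.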
G9a block: inhibitors of human histone lysine methyltransferase G9a | actives 8.8% (n = 350,000) | G9a H3K9 monomethylation, AlphaScreen, 2 h | Potency, µM (titrated, usually from 102 µM), for inactives: at the top dose activity, negative = inhibition, actives largely listed as inhibitors | AID 504332; note: potency is the fitted concentration of half-maximal effect; % is set by controls: 0 for no effect and ±100 for the full control effect; nearly all actives have a fitted effect of over 75% in size
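Enzyme 20 nM + cpd, 15 min RT; add b-H3K9 pep 500 nM / SAM 20 uM; 2 h RT; anti-H3K9me1 Ab 0.5 ug/mL + SA donor / anti-rabbit acceptor beads 20 ug/mL each, 10 min; AlphaScreen read.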
Lamin A splicing: modulators of lamin A splicing. HeLa LMNA splicing GFP/RFP minigene ratio, 48 h. Potency, µM (doses to about 46.1 µM), for inactives: top-dose ratio change, negative = inhibition, usual class: inhibitors. actives 0.01% (n = 200,000); active = well fitted inhibition curve with a large enough effect in the signal ratio, with a control signal flat, not every such curve was filed as active; inconclusive = small, poorly fitted or top-dose-only effect, or effect the other way, or a change in a side signal; the % refers to the signal ratio; note: potency is the fitted concentration of half-maximal effect; % is set by controls: 0 for no effect and ±100 for the full control effect
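Read-out is the ratio of GFP to DsRed2 object intensity, acquired by 488 nm laser-scanning cytometry on HeLa lamin A-EGFP minigene reporter cells. Compound incubation 48 hrs at 37 °C in Opti-MEM with 2% FBS; DMSO 0.5% final.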
Sfp inh: Sfp phosphopantetheinyl transferase inhibition. 3.5% of 310,000 active. AID 1490. Potency, µM, inactives show max response, negative = inhibition, actives largely listed as inhibitors. Biochemical Sfp PPTase activity, qHTS; active = well fitted inhibition curve with a large enough effect; inconclusive = small, poorly fitted or top-dose-only effect, or another doubt; inactive = no such curve, though single readings can be large or run the other way;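 note: the enzyme is Sfp with the accession as filed and its product quenches rhodamine fluorescence; potency is the fitted concentration of half-maximal effect; 0% = enzyme reaction without inhibitor and -100% = no enzyme wells; top concentration of the series not given in the record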
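Sfp 15 nM + cpd, 15 min RT; start w/ rhodamine-CoA 5 uM, BHQ-2-YbbR 12.5 uM (final); 50 mM Hepes pH 7.6, 10 mM MgCl2, 0.01% NP-40, 0.01% BSA; read 525/598 nm at 0 and 30 min.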
Numbers without * were called inactive; [ ] = remark or other dose. Compounds with a hit are over-represented: about 13% of the library has one in this group of screens. Unless noted, calls come from the whole dose curve; as a rule, active = well fitted curve in the direction sought with a large enough effect; inconclusive = small, poorly fitted or top-dose-only effect, or another doubt; inactive = no such curve, though single readings can be large; an effect the other way counts as inactive or inconclusive.

Results for COc1ccccc1C1/C(=C(/O)c2ccc(C)cc2)C(=O)C(=O)N1CCN1CCOCC1 (stereo not given) ?
ALDH1A1 inh: inconclusive; KDM4E inh: -17%; miR-21 reporter: -4%; G9a block: 28µM*; Lamin A splicing: -10%; Sfp inh: 17%

Results for COc1ccc(/C(O)=C2/C(=O)C(=O)N(CCN3CCOCC3)C2c2ccc(C)cc2)cc1 (stereo not given) ?
ALDH1A1 inh: inconclusive; KDM4E inh: -4%; miR-21 reporter: -6%; G9a block: 45µM*; Lamin A splicing: 6%; Sfp inh: -1%

Results for Cc1cccc(NC(=O)CSC2=Nc3ccccc3C3=NC(CCC(=O)NCc4ccco4)C(=O)N23)c1 (stereo not given) ?
miR-21 reporter: 0%; G9a block: inconclusive

Results for COc1ccccc1C1C(C(=O)c2sc(C)nc2C)=C(O)C(=O)N1CCN1CCOCC1 (stereo not given) ?
ALDH1A1 inh: inconclusive; KDM4E inh: -4%; miR-21 reporter: -19%; G9a block: 40µM*; Lamin A splicing: 4%; Sfp inh: -4%

What do the screens show for `COc1cccc(C2C(C(=O)c3sc(C)nc3C)=C(O)C(=O)N2CCN2CCOCC2)c1OC` (stereo not given)?
ALDH1A1 inh: -9%; KDM4E inh: -4%; miR-21 reporter: -1%; G9a block: inconclusive; Lamin A splicing: 0%; Sfp inh: -6%

Results for Cc1ccc(C)c(/C(O)=C2/C(=O)C(=O)N(CCN3CCOCC3)C2c2ccc(C)o2)c1 (stereo not given) ?
ALDH1A1 inh: inconclusive; KDM4E inh: -12%; miR-21 reporter: -3%; G9a block: 14µM*; Lamin A splicing: -5%; Sfp inh: -18%

How did O=C1[C@@H]2[C@H]3C(=CC[C@@H]2C(=O)N1Cc1ccccc1)C1(OCCCO1)[C@H]1O[C@@H]1[C@H]3O do in these assays?
ALDH1A1 inh: -5%[13.5 µM]; Sfp inh: -8%

What do the screens show for `CCCCCC(=O)NC(NC(=S)NC1CCS(=O)(=O)C1)C(Cl)(Cl)Cl` (stereo not given)?
ALDH1A1 inh: inconclusive; KDM4E inh: 3%; miR-21 reporter: -1%; G9a block: 25µM*; Lamin A splicing: -14%; Sfp inh: 4%

Results for CN(C)c1ccc(N2C(=O)CSC2=S)cc1 ?
ALDH1A1 inh: 2.2µM*; KDM4E inh: 6.3µM*; miR-21 reporter: -15%; G9a block: inconclusive; Lamin A splicing: -7%; Sfp inh: -35%

How did CC1SC(=S)N(c2ccc(N(C)C)cc2)C1=O (stereo not given) do in these assays?
miR-21 reporter: -11%; G9a block: 45µM*; Sfp inh: -4%

Results for CN(C)c1ccc(N2C(=O)CC(c3ccccc3)CC2=O)cc1 ?
KDM4E inh: -2%; miR-21 reporter: -18%; G9a block: -2%; Sfp inh: 16%

What do the screens show for `CCOc1ccc(NC(=O)Cn2c(=O)n(-c3ccccc3)c(=O)c3c4c(sc32)CCCC4)cc1`?
miR-21 reporter: -1%; G9a block: 9%[59 µM]

What do the screens show for `Cc1ccc(CCNC(=O)c2c(C)oc3nc(C)nc(N4CCOCC4)c23)cc1`?
miR-21 reporter: -9%; G9a block: 0%[59 µM]; Lamin A splicing: 23%[46 µM]

What do the screens show for `COc1ccccc1CN1C(=O)[C@@H]2C(CCC(N)=O)NC3(C(=O)Nc4c3ccc(Cl)c4C)[C@@H]2C1=O` (stereo not given in full)?
ALDH1A1 inh: 0.22µM*; KDM4E inh: 11%; miR-21 reporter: -9%; G9a block: inconclusive; Lamin A splicing: 2%; Sfp inh: 7%

What do the screens show for `O=C(Cn1nnc(-c2ccccc2F)n1)Nc1ccc2c(c1)OCCO2`?
miR-21 reporter: -19%; G9a block: 10%; Sfp inh: 1%

Results for COc1cc(/C=C(\C#N)C(=O)c2ccc(O)c(O)c2)cc(I)c1O ?
ALDH1A1 inh: inconclusive; KDM4E inh: 10µM*; G9a block: 2.2µM*; Lamin A splicing: -25%

What do the screens show for `C#CCN(Cc1ccccc1)S(=O)(=O)C=C`?
G9a block: -10%[2.33 µM]

What do the screens show for `CC(=O)c1sc(N/N=C2\CC3CCC2(C)C3(C)C)nc1C` (stereo not given)?
ALDH1A1 inh: inconclusive; KDM4E inh: 6%; miR-21 reporter: 2%; Sfp inh: 28µM*

Results for O=C(O)[C@H]1CCCN(CCC=C(c2ccccc2)c2ccccc2)C1 ?
ALDH1A1 inh: -4%; KDM4E inh: 4%; Sfp inh: 2%

How did CCOC(=O)C1CCCN(S(=O)(=O)c2cnc(Cl)c(Br)c2)C1 (stereo not given) do in these assays?
miR-21 reporter: -4%; G9a block: 7%[59 µM]; Sfp inh: 20%

What do the screens show for `O=S(=O)(c1cnc(Cl)c(Br)c1)N1CCN(c2ncccn2)CC1`?
ALDH1A1 inh: 0.35µM*; KDM4E inh: 2%; miR-21 reporter: 0%; G9a block: -12%; Sfp inh: 16%

Results for O=S(=O)(c1cnc(Cl)c(Cl)c1)N1CCN(c2ncccn2)CC1 ?
ALDH1A1 inh: 0.79µM*; KDM4E inh: 21%; miR-21 reporter: 0%; G9a block: 9%; Sfp inh: 14%

What do the screens show for `O=S(=O)(c1cnc(Cl)c(Br)c1)N1CCCCCC1`?
ALDH1A1 inh: 8.9µM*; KDM4E inh: 7%; miR-21 reporter: -5%; G9a block: 8%[59 µM]; Lamin A splicing: 15%; Sfp inh: 16%

How did Cc1nc2c3ccccc3nc(NNC(=O)CCC(=O)NCCN3CCN(c4ccccc4)CC3)n2n1 do in these assays?
miR-21 reporter: 2%; G9a block: 28%; Sfp inh: 15%

Continued; it opens with the two that closed the last part.
What do the screens show for `O=S(=O)(c1cnc(Cl)c(Br)c1)N1CCCCCC1`?
ALDH1A1 inh: 8.9µM*; KDM4E inh: 7%; miR-21 reporter: -5%; G9a block: 8%[59 µM]; Lamin A splicing: 15%; Sfp inh: 16%

How did Cc1nc2c3ccccc3nc(NNC(=O)CCC(=O)NCCN3CCN(c4ccccc4)CC3)n2n1 do in these assays?
miR-21 reporter: 2%; G9a block: 28%; Sfp inh: 15%

How did CCOc1cccc(CC(=O)N2CCc3c([nH]c4ccc(OC)cc34)C2c2ccc(F)cc2)c1OCC (stereo not given) do in these assays?
miR-21 reporter: -5%; G9a block: inconclusive

Results for Cc1cccc(NC(=S)N2CCOCC2)c1C ?
ALDH1A1 inh: -2%; KDM4E inh: -8%; miR-21 reporter: -2%; G9a block: 9%[59 µM]; Lamin A splicing: 5%; Sfp inh: 71µM*

Results for Cc1cccc(NC(=S)N2CCCCCC2)c1C ?
miR-21 reporter: 0%; Sfp inh: 12%

What do the screens show for `CCOC(=O)N1CCC(N2C(=O)c3ccc(C(=O)Nc4cccc(OC)c4)cc3C2=O)CC1`?
miR-21 reporter: -2%; G9a block: 17%; Sfp inh: 8%

How did S=C(Nc1ccccc1)N1CCCCCCC1 do in these assays?
ALDH1A1 inh: -3%; KDM4E inh: 5%; miR-21 reporter: 5%; Lamin A splicing: -7%[46 µM]; Sfp inh: 8%

Not a retest: two of the compounds above.
Results for Cc1cccc(NC(=S)N2CCOCC2)c1C ?
ALDH1A1 inh: -2%; KDM4E inh: -8%; miR-21 reporter: -2%; G9a block: 9%[59 µM]; Lamin A splicing: 5%; Sfp inh: 71µM*

Results for Cc1cccc(NC(=S)N2CCCCCC2)c1C ?
miR-21 reporter: 0%; Sfp inh: 12%

Screens from PubChem.
